# Experimental data published in PubChem BioAssay AID651710 (Broad Institute, 2012).
# Protein sequences, listed by entry. Tags and fused reporters are not part of them.
# UniProt P43351, whole entry: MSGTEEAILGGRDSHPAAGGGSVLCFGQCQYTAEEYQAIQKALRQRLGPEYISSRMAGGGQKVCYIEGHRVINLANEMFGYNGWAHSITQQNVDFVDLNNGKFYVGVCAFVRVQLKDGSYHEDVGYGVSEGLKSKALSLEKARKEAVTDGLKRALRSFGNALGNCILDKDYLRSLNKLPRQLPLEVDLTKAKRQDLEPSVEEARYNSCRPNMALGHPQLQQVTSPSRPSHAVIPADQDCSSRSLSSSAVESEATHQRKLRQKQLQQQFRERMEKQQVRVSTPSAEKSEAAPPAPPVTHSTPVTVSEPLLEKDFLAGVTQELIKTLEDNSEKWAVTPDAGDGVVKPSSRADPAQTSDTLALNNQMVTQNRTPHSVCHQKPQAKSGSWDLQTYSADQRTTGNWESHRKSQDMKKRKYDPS
# The list shows a part of the results, in another mix than the full data. Some structures show a salt or complex split into parts, the way the source records it. The source made the active and inactive calls.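 Rule for the calls: active = every replicate showing at least 50% inhibition; inconclusive = mean inhibition at least 50% but not in every replicate; inactive = the rest.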
# Biological target: DNA repair protein RAD52 homolog (Homo sapiens) (UniProt P43351)
# Assay: blockers of RAD52 strand annealing activity – biochemical, FRET, single point, set 2, primary screen (AID 651710)
# Conditions: recombinant RAD52 DNA annealing, FRET fluorescence; at 18.7 µM; active compounds read high
row,SMILES,inhibition
1,O=[N+]([O-])c1cc([N+](=O)[O-])c(OC2CCCCC2O)c([N+](=O)[O-])c1 (stereo not drawn),inactive: -14.3%
2,CCCCCOc1ccc(NP(C)(=O)Oc2ccc(Cl)cc2Cl)cc1 (stereo not drawn),inactive: -21.9%
3,Cc1c([N+](=O)[O-])cc([N+](=O)[O-])c(Br)c1[N+](=O)[O-],inactive: -11.5%
4,COc1ccc(OP(C)(=O)Nc2ccc(SC(F)(F)F)cc2)cc1 (stereo not drawn),inactive: -11.4%
5,CCN(CC)CCCNc1ccccc1[N+](=O)[O-].O=[N+]([O-])c1cc([N+](=O)[O-])c(O)c([N+](=O)[O-])c1,inactive: -16.9%
6,COc1ccc2c(c1O)-c1c(O)c(OC)cc3c1[C@H](C2)[N+](C)(C)CC3.O=[N+]([O-])c1cc([N+](=O)[O-])c([O-])c([N+](=O)[O-])c1[O-],inactive: 2.37%
7,O=C(OC1CN2CCC1CC2)c1ccc([N+](=O)[O-])cc1 (stereo not drawn),inactive: 20.8%
8,O=C(OCCN1CCN(CCOCc2ccccc2)CC1)C(O)(c1ccccc1)c1ccccc1,inactive: -7.37%
9,CP(=O)(Nc1ccccc1F)Oc1ccccc1 (stereo not drawn),inactive: -10.4%
10,CC(C)c1ccc(OP(C)(=O)Nc2ccc(SC(F)(F)F)cc2)cc1 (stereo not drawn),inactive: -8.51%
11,O=[N+]([O-])c1cc([N+](=O)[O-])c(Nc2ccc(Cl)cc2)c([N+](=O)[O-])c1,inactive: -2.45%
12,O=[N+]([O-])c1cc([N+](=O)[O-])c(C(F)(F)F)c([N+](=O)[O-])c1O,inactive: -9.62%
13,CCOP(=O)(CC)OCC,inactive: -7.88%
14,CP(=O)(Nc1ccc(SC(F)(F)F)cc1)Oc1ccc(F)cc1 (stereo not drawn),inactive: -4.62%
15,Cc1c(C(c2ccc3c(c2)OCO3)c2c(C)n(C)n(-c3ccccc3)c2=O)c(=O)n(-c2ccccc2)n1C.O=[N+]([O-])c1cc([N+](=O)[O-])c(O)c([N+](=O)[O-])c1,inactive: -0.187%
16,O=[N+]([O-])c1ccc(OP2(=O)COCCO2)cc1 (stereo not drawn),inactive: -6.59%
17,O=[N+]([O-])c1cc([N+](=O)[O-])c(NCC2CCS(=O)(=O)C2)c([N+](=O)[O-])c1 (stereo not drawn),inactive: 2.05%
18,Cc1cc(-c2cccc3ccccc23)c(C)cn1.O=[N+]([O-])c1cc([N+](=O)[O-])c(O)c([N+](=O)[O-])c1,inactive: -12.9%
19,COc1ccc(NP(C)(=O)Oc2ccccc2OC)cc1 (stereo not drawn),inactive: -13.1%
20,CCOC(=O)c1ccc(NP(C)(=O)Oc2ccc(Cl)cc2)cc1 (stereo not drawn),inactive: 1.81%
21,Nc1ccc2c(ccc3cccnc32)n1.O=[N+]([O-])c1cc([N+](=O)[O-])c(O)c([N+](=O)[O-])c1,inactive: -1.63%

row,SMILES,inhibition
1,CN(C)C(=O)c1c([N+](=O)[O-])cc([N+](=O)[O-])cc1[N+](=O)[O-],inactive: -8.46%
2,COc1ccccc1OP(C)(=O)Nc1ccccc1Br (stereo not drawn),inactive: -1.59%
3,O=C(OCCCN1CCCC1)C(O)(c1ccccc1)C1CCCCC1 (stereo not drawn),inactive: -15.7%
4,CCc1ccc(OP(C)(=O)Nc2cccnc2)cc1 (stereo not drawn),inactive: -9.91%
5,O=[N+]([O-])c1cc([N+](=O)[O-])c(Nc2ccccn2)c([N+](=O)[O-])c1,inactive: -0.997%
6,COc1ccccc1OP(C)(=O)Nc1ccc(Br)cc1 (stereo not drawn),inactive: -1.33%
7,CP(=O)(OCCOc1ccccc1)OCCOc1ccccc1,inactive: -6.8%
8,CP(=O)(Nc1ccc(Cl)cc1Cl)Oc1ccccc1 (stereo not drawn),inactive: -2.68%
9,CCCCCCCCCCCCCCCC1C[N+](C)(C)CCOP(C)(=O)O1 (stereo not drawn),active: 81.9%
10,Cc1cc(C)cc(OP(C)(=O)Nc2cccc(C(F)(F)F)c2)c1 (stereo not drawn),inactive: 2.11%
11,O=C1C(O)=C([N+](=O)[O-])C(=O)C(O)=C1[N+](=O)[O-],inactive: -13.1%
12,Cc1cc(C)cc(OP(C)(N)=O)c1 (stereo not drawn),inactive: 1.07%
13,COc1ccccc1OP(C)(=O)Nc1cc(Cl)ccc1C (stereo not drawn),inactive: -22%
14,O=[N+]([O-])c1ccc2c(c1)C=Nc1ccccc1O2,inactive: -14.1%
15,Cc1cccc(C)c1OP(C)(N)=O (stereo not drawn),inactive: -15%
16,CC(C)(C)c1ccc(OP(C)(=O)Nc2ccc(SC(F)(F)F)cc2)cc1 (stereo not drawn),inactive: -7.01%
17,O=[N+]([O-])c1cc([N+](=O)[O-])c(Nc2cccnc2)c([N+](=O)[O-])c1,inactive: -9.43%
18,COc1ccccc1-c1ccccn1.O=[N+]([O-])c1cc([N+](=O)[O-])c(O)c([N+](=O)[O-])c1,inactive: -16.5%
19,CCN(CC)CCCOC(=O)C(O)(c1ccccc1)c1ccccc1,inactive: 8.43%
20,CP(=O)(Nc1ccccn1)Oc1ccc(Cl)cc1 (stereo not drawn),inactive: -10.9%
21,CCOC(=O)c1ccc(NP(C)(=O)Oc2ccc(OC)cc2)cc1 (stereo not drawn),inactive: -13.4%

row,SMILES,inhibition
1,O=[N+]([O-])c1cc([N+](=O)[O-])c(O)c([N+](=O)[O-])c1.c1ccc(Oc2ccncc2)cc1,inactive: -8.91%
2,CCc1ccc(OP(C)(=O)N2CCN(c3ccc([N+](=O)[O-])cc3)CC2)cc1 (stereo not drawn),inactive: -8.64%
3,CP(=O)(NC(=O)Nc1ccccc1)Oc1ccccc1 (stereo not drawn),inactive: -10.5%
4,CP(=O)(Oc1ccccc1)OC(c1ccccc1)C(F)(F)F (stereo not drawn),inactive: -0.657%
5,CP(=O)(Nc1ccc(SC(F)(F)F)cc1)Oc1ccc(Cl)cc1 (stereo not drawn),inactive: -4.8%
6,CP(=O)(Nc1ccccc1Br)Oc1ccccc1 (stereo not drawn),inactive: -12.4%
7,COc1ccccc1OP(C)(=O)Nc1ccccc1 (stereo not drawn),inactive: -5.96%
8,COc1ccc(-c2ccccn2)cc1.O=[N+]([O-])c1cc([N+](=O)[O-])c(O)c([N+](=O)[O-])c1,inactive: -11.7%
9,CCCOc1ccc(NP(C)(=O)Oc2ccc(Cl)cc2)cc1 (stereo not drawn),inactive: -14%
10,CN1CCCCC1COC(=O)C1(O)c2ccccc2CCc2ccccc21 (stereo not drawn),inactive: -14.2%
11,CCOC(=O)C(CC)C1=NC(C)(C)Cc2ccccc21.O=[N+]([O-])c1cc([N+](=O)[O-])c(O)c([N+](=O)[O-])c1 (stereo not drawn),inactive: -17.1%
12,O=[N+]([O-])c1cc([N+](=O)[O-])c(Nc2nnnn2CCO)c([N+](=O)[O-])c1,inactive: -0.477%
13,O=[N+]([O-])c1cc([N+](=O)[O-])c(-c2cnn(-c3ccccc3)c2)c([N+](=O)[O-])c1,inactive: -6.14%
14,CN(Cc1cccnc1)C(=O)COc1ccc(Cl)c(Cl)c1.O=[N+]([O-])c1cc([N+](=O)[O-])c(O)c([N+](=O)[O-])c1,inactive: -18.8%
15,O=[N+]([O-])c1cc([N+](=O)[O-])c(-n2nnc3ccccc32)c([N+](=O)[O-])c1,inactive: -24.4%
16,CP(=O)(Nc1cccc(Br)c1)Oc1ccccc1 (stereo not drawn),inactive: -13.4%
17,Cc1cc(C)cc(OP(C)(=O)Nc2ccccn2)c1 (stereo not drawn),inactive: -9.22%
18,CCOC(=O)c1ccc(NP(C)(=O)Oc2cc(C)cc(C)c2)cc1 (stereo not drawn),inactive: -5.22%
19,Cc1cc(C)cc(OP(C)(=O)Nc2ccc(C)cc2C)c1 (stereo not drawn),inactive: -2.26%
20,COc1ccccc1OP(C)(=O)Nc1cccc(Br)c1 (stereo not drawn),inactive: -4.62%
21,O=C(O)c1cccc(Nc2c([N+](=O)[O-])cc([N+](=O)[O-])cc2[N+](=O)[O-])c1,inactive: -7.18%
